Assay results from PubChem BioAssay AID540336 (Broad Institute, 2011).
Only a part is listed here, and it is no random draw. Some results for these compounds are left out of this collection, so the calls shown say nothing about other tests. The source made the active and inactive calls.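 How the source made its calls: active means inhibition of at least 50% in every replicate; inconclusive means best replicate reaches 50% inhibition but some replicates fall short; inactive means the rest.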

Protein sequences, listed by entry. Tags and fused reporters are not part of them.
UniProt Q5AAJ8, whole entry: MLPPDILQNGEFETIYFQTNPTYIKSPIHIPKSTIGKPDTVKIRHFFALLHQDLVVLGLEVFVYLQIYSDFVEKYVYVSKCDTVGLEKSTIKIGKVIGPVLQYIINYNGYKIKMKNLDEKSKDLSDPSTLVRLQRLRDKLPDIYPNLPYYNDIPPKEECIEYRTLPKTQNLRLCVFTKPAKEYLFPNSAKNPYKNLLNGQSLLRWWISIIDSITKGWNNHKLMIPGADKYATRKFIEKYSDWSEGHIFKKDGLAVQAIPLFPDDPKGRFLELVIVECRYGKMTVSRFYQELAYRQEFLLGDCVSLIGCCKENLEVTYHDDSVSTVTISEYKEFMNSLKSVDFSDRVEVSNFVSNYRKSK

target: Histone acetyltransferase RTT109 (Candida albicans (strain SC5314 / ATCC MYA-2876)) (UniProt Q5AAJ8); assay: Rtt109-Vps75 histone acetyltransferase blockade – biochemical, ThioGlo CoA-SH fluorescence, plate reader, primary screen (AID 540336); settings: purified Rtt109/Vps75, ThioGlo CoA-SH fluorescence, 4 h; at 34.9 µM; stronger effect = higher value

Structure (SMILES) | inhibition
COc1cc(C(=O)NCC2(N(C)C)CCCCC2)c([N+](=O)[O-])cc1OC | inactive: -6.45%
CN(C)C1(CNC(=O)c2ccc(Br)cc2)CCCCC1 | inactive: 11.7%
O=C(NCC1(N2CCCCC2)CCCCC1)c1cccc(Cl)c1 | inactive: 1.25%
COc1ccc(Cl)cc1C(=O)NCC1(N(C)C)CCCCC1 | inactive: 11.1%
COc1cccc(C(=O)NCC2(N3CCCCC3)CCCCC2)c1 | inactive: -35.9%
O=C(OC1CN2CCC1CC2)C(CO)(c1ccccc1)c1ccccc1 (centres undefined) | inactive: 0.347%
CN(C)c1cccc(C(=O)NCC2(N(C)C)CCCCC2)c1 | inactive: -15.7%
O=C(OCCN1CCCC1)C(O)(c1ccccc1)c1ccccc1 | inactive: 2.52%
CC(C)Oc1ccc(C(=O)NCC2(N(C)C)CCCCC2)cc1 | inactive: 7.63%
COc1ccc(Br)c(C(=O)NCC2(N3CCCCC3)CCCCC2)c1 | inactive: 5.14%
O=C(NCC1(N2CCCCC2)CCCCC1)c1cc([N+](=O)[O-])ccc1Cl | inactive: 2.44%
Cc1ccc(C(=O)NCC2(N3CCCCC3)CCCCC2)cc1 | inactive: 0.764%
CC(C)N1C(=O)CC2(CCN(CCOC(=O)C(O)(c3ccccc3)c3ccccc3)CC2)C1=O | inactive: -0.239%
COc1cc(SC)ccc1C(=O)NCC1(N(C)C)CCCCC1 | inactive: -1.45%
CCN(CC)CC(C)C(C)OC(=O)C(O)(c1ccccc1)c1ccccc1 (centres undefined) | inactive: 0.696%
CN(C)C1CCCC1OC(=O)C(O)(c1ccccc1)c1ccccc1 (centres undefined) | inactive: -6.38%
CN(C)c1ccc(C(=O)NCC2(N(C)C)CCCCC2)cc1 | inactive: -4.81%
Cc1ccccc1C(=O)NCC1(N2CCCCC2)CCCCC1 | inactive: 0.275%
O=C(NCC1(N2CCCCC2)CCCCC1)c1cccc(Br)c1 | inactive: -1.19%
Cc1cc(C(=O)NCC2(N3CCCCC3)CCCCC2)ccc1[N+](=O)[O-] | inactive: -0.263%
CCN1CCCC(OC(=O)C2(O)c3ccccc3C=Cc3ccccc32)C1 (centres undefined) | inactive: -1.87%
COc1ccc(C(=O)NCC2(N(C)C)CCCCC2)cc1 | inactive: 2.34%
O=C(NCC1(N2CCCCC2)CCCCC1)c1cc(F)c(F)cc1Cl | inactive: 0.202%
C=CCN1CCN(CCOC(=O)C(O)(c2ccccc2)c2ccccc2)CC1 | inactive: -7.62%
